Antibody variant affinities, Ab-91 heavy chain, assay 2

All variants were tested on one target, the spike HR2 peptide PDVDLGDISGINAS (SARS-CoV-2).

The variants keep the light chain, the linker and the frameworks of Ab-91 (scFv order VL, a (GGGGS)3 linker, VH).
VL: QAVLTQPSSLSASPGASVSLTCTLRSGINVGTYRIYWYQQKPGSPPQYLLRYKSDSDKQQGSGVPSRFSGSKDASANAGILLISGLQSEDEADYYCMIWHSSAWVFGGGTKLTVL
VH: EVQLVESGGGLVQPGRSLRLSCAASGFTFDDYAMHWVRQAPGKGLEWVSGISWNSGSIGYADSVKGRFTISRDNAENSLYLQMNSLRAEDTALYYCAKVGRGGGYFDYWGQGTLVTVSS

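The parent was found by panning a naive human phage display library on the peptide. AAYL51 was designed without a model: most single CDR substitutions and a random sample of double and triple ones. The assay is AlphaSeq: two haploid yeast populations carry antibody and antigen on their surface. The frequency of each diploid, read from paired DNA barcodes, reflects how well the two displayed proteins bind. The ratio of observed to expected reads was calibrated, replicate by replicate, on BCL2-family standards whose Kd was known from biolayer interferometry. There are three technical replicates.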

Substitutions are numbered in sequence along the VH above, starting at 1 (not Kabat).
Every variant below is changed at G102 of the VH (sequential numbering).
Values are log10 of the apparent Kd in nM; lower means stronger binding.
An entry "ND" has no value in the source: the pair was not observed among the diploids in that replicate. This suggests poor binding but is not conclusive.
As a blank, each scFv also met three strains without target: over library AAYL51, 21% of these pairings were detected, typically at 4.54 and seldom below 3.26.

For N54R G102N, the assay gave 4.65, ND, ND. With S57E G59P G102N the result was ND, ND, ND. Variant G56W R101C G102C gave 4.17, ND, ND. For F27C F29N G102T, the assay gave ND, 4.50, ND. Variant A61Y G102H gave ND, 4.66, 5.67. Variant W53L N54Y G102D gave 4.86, ND, ND. With Y32C S52A G102N the result was 3.58, ND, ND.

For D31G Y32W G102L, the assay gave ND, ND, 4.13. Variant F29R K65D G102Q showed 6.00, 4.60, ND. With G102R F106E the result was ND, ND, ND. For T28H G102A Y108N, the assay gave ND, ND, ND. For A33I G50P G102K, the assay gave 3.99, ND, ND. Variant G26N I51W G102W showed 3.59, ND, ND. With Y60D G102I Y108L the result was 4.76, ND, ND.

Variant I51Y G102E G104P showed 4.05, ND, ND. With S52E K65N G102E the result was 4.14, ND, 4.06. For A33M K65E G102A, the assay gave 3.77, ND, 3.55. For G50N V99N G102L, the assay gave ND, ND, ND. With G102E G104M Y108T the result was 1.25, 1.22, 0.52. With N54Q G56A G102M the result was 0.78, 0.76, -0.22. Variant S57P G102K showed ND, ND, ND.

Variant T28K D62M G102S showed ND, 4.75, ND. Variant F27M G102S showed ND, ND, ND. Variant V64K G102L D107W showed ND, ND, ND. Variant I51E Y60W G102M gave ND, ND, ND. With F29Q Y60S G102T the result was 5.92, ND, ND. Variant Y60N G102I Y108H showed 4.73, 4.86, ND. Variant W53A V99W G102V showed ND, 3.89, ND.

With S63F G102S Y108W the result was ND, ND, ND. Variant S52R S55P G102K gave ND, ND, ND. Variant T28P A61W G102H gave 3.98, 4.93, ND. For M34A G59E G102E, the assay gave 4.41, ND, ND. Variant R101K G102T showed ND, ND, ND. For I58Y V64A G102W, the assay gave ND, ND, 4.22. For M34V G102P D107W, the assay gave ND, ND, ND.

Variant V99E R101P G102A gave ND, ND, ND. For D30T G102A, the assay gave 3.20, 2.50, 2.97. Variant S52Y V99T G102V showed ND, ND, ND. Variant G100N R101K G102V showed 4.06, ND, ND. Variant T28C G100S G102H gave 2.81, 3.17, 3.16. Variant M34I S52W G102W showed 5.29, ND, ND. With D30V R101M G102Q the result was ND, ND, ND.

Source: Engelhart et al. 2022 (doi:10.1038/s41597-022-01779-4), MIT Lincoln Laboratory and A-Alpha Bio; data file from the FLAb repository.